# Reference: patent publication US3945994A, “Novel acid compounds” (Gist-Brocades N.V., priority 1973, dated 1976)
# System: Bacillus subtilis ATCC 6633
# Experiment: agar serial dilution test, MIC
# Type: cell-based
# Details: 24 hours at 37°C
row,SMILES,MIC [µg/mL]
1,CCOP(=S)(NC(=S)N[C@@H](C(=O)N[C@@H]1C(=O)N2[C@@H]1SC(C)(C)[C@@H]2C(=O)O)c1ccccc1)OCC,3
2,CC1(C)S[C@@H]2[C@H](NC(=O)[C@H](NC(=O)NP(=O)(c3ccccc3)c3ccccc3)c3ccccc3)C(=O)N2[C@H]1C(=O)O,0.3
3,CCOC(=O)NNP(=O)(NC(=O)N[C@@H](C(=O)N[C@@H]1C(=O)N2[C@@H]1SC(C)(C)[C@@H]2C(=O)O)c1ccccc1)OCC (stereo partly shown),0.5
4,CC1(C)S[C@@H]2[C@H](NC(=O)[C@H](NC(=O)NP(=O)(OCc3ccccc3)OCc3ccccc3)c3ccccc3)C(=O)N2[C@H]1C(=O)O,0.25
5,CCOP(=O)(NC(=S)N[C@@H](C(=O)N[C@@H]1C(=O)N2[C@@H]1SC(C)(C)[C@@H]2C(=O)O)c1ccccc1)OCC,0.25
6,CC1(C)S[C@@H]2[C@H](NC(=O)[C@H](NC(=O)NP(=O)(Nc3ccccc3)Nc3ccccc3)c3ccccc3)C(=O)N2[C@H]1C(=O)O,0.12
7,CC1(C)S[C@@H]2[C@H](NC(=O)[C@H](NC(=O)NP(=S)(Oc3ccccc3)Oc3ccccc3)c3ccccc3)C(=O)N2[C@H]1C(=O)O,0.25
8,CCOP(=O)(O)NC(=O)N[C@@H](C(=O)N[C@@H]1C(=O)N2C(C(=O)O)=C(C)CS[C@H]12)c1ccccc1,25
9,CCOP(=O)(NC(=O)N[C@@H](C(=O)N[C@@H]1C(=O)N2C(C(=O)O)=C(C)CS[C@H]12)c1ccccc1)OCC,6
10,CN(C)P(=O)(NC(=O)N[C@@H](C(=O)N[C@@H]1C(=O)N2[C@@H]1SC(C)(C)[C@@H]2C(=O)O)c1ccccc1)N(C)C,1
11,CCOP(=S)(NC(=O)N[C@@H](C(=O)N[C@@H]1C(=O)N2[C@@H]1SC(C)(C)[C@@H]2C(=O)O)c1ccccc1)OCC,0.25
12,CCOP(=O)(NC(=O)Nc1ccccc1)N[C@@H](C(=O)N[C@@H]1C(=O)N2[C@@H]1SC(C)(C)[C@@H]2C(=O)O)c1ccccc1 (stereo partly shown),0.5
13,CC1(C)S[C@@H]2[C@H](NC(=O)[C@H](NC(=O)NP(C)(C)=O)c3ccccc3)C(=O)N2[C@H]1C(=O)O,0.25
14,CC1(C)S[C@@H]2[C@H](NC(=O)[C@H](NC(=O)NP(=O)(O)O)c3ccccc3)C(=O)N2[C@H]1C(=O)O,0.5
15,CC1(C)S[C@@H]2[C@H](NC(=O)[C@H](NC(=S)NP(=O)(c3ccccc3)c3ccccc3)c3ccccc3)C(=O)N2[C@H]1C(=O)O,0.5
16,CCOP(=O)(NC(=O)N[C@@H](C(=O)N[C@@H]1C(=O)N2[C@@H]1SC(C)(C)[C@@H]2C(=O)O)c1ccccc1)OCC,0.5
17,CN(C)P(=O)(NC(=S)N[C@@H](C(=O)N[C@@H]1C(=O)N2[C@@H]1SC(C)(C)[C@@H]2C(=O)O)c1ccccc1)N(C)C,1
18,CC1=C(C(=O)O)N2C(=O)[C@@H](NC(=O)[C@H](NC(=O)NP(=O)(Oc3ccccc3)Oc3ccccc3)c3ccccc3)[C@H]2SC1,6
19,CCOP(=O)(NC(=O)N[C@@H](C(=O)N[C@@H]1C(=O)N2[C@@H]1SC(C)(C)[C@@H]2C(=O)O)c1ccccc1)OCc1ccccc1 (stereo partly shown),0.25
20,CC1(C)S[C@@H]2[C@H](NC(=O)[C@H](NC(=O)NP(=O)(OCc3ccccc3)c3ccccc3)c3ccccc3)C(=O)N2[C@H]1C(=O)O (stereo partly shown),0.5
21,CC1(C)S[C@@H]2[C@H](NC(=O)[C@H](NC(=S)NP(=O)(Oc3ccccc3)Oc3ccccc3)c3ccccc3)C(=O)N2[C@H]1C(=O)O,0.25
22,CC1(C)S[C@@H]2[C@H](NC(=O)[C@H](NC(=S)NP(=S)(Oc3ccccc3)Oc3ccccc3)c3ccccc3)C(=O)N2[C@H]1C(=O)O,0.5
23,CCOP(=O)(NC(=O)N[C@@H](C(=O)N[C@@H]1C(=O)N2[C@@H]1SC(C)(C)[C@@H]2C(=O)O)c1ccccc1)Nc1ccccc1 (stereo partly shown),1
24,CC1(C)S[C@@H]2[C@H](NC(=O)[C@H](NC(=O)NP(=O)(Oc3ccccc3)Oc3ccccc3)c3ccccc3)C(=O)N2[C@H]1C(=O)O,0.06
25,CCSP(=O)(NC(=O)N[C@@H](C(=O)N[C@@H]1C(=O)N2[C@@H]1SC(C)(C)[C@@H]2C(=O)O)c1ccccc1)SCC,0.25
